Reference: patent US20260097130A1, “METHOD FOR TREATING NEURODEGENERATIVE DISEASES” (Suntec Medical, Inc., priority 2023, published 2026)

Assay: Brain delivery in mouse, IVIS live imaging
Format: in vivo, Athymic Nude-Foxn1nu female mice
Conditions: 10 mg/kg anti-HER2-Cy5.5 equivalent, tail vein i.v. bolus; live images at 8 hour
Protocol: Antibody drugs cannot penetrate BBB into brain parenchyma efficiently. Antibody drugs show similar structure, composed with Fab and Fc region, and molecular size (near 150 kDa).
Athymic Nude-Foxn1^nu female mice at the age of 6 weeks were used, the mice were divided into two groups. One group (n=3) received 10 mg/kg anti-HER2-Cy5.5 through tail vein i.v. bolus as control. The other group (n=3) received equivalent anti-HER2-Cy5.5 dose in MINC-anti-HER2-Cy5.5 via tail vein i.v. bolus.

Substance: anti-HER2-Cy5.5: anti-HER2 antibody (trastuzumab) reacted with Cy5.5-NHS ester
- fluorescence signal in the brain region: not
